The source of these data is patent US20230071840A1, “HETEROCYCLIC GLP-1 AGONISTS” (Gasherbrum Bio, Inc., priority 2020, published 2023).

Amino acid sequences for entries named in this document (tags omitted). Residues count along the entry.
UniProt P43220, 24-463, species assumed: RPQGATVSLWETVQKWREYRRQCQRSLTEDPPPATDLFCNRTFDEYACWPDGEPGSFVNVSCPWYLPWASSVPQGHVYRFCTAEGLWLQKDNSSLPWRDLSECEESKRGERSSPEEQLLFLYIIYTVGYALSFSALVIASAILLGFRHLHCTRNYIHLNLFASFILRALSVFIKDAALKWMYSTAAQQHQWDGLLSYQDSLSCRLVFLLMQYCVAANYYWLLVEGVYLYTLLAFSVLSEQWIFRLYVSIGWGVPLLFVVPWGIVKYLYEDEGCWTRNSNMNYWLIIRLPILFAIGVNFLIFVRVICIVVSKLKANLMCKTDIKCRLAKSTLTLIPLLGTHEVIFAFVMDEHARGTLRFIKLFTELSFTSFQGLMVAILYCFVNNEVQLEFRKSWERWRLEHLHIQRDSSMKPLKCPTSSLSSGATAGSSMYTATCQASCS

This assay has as its target GLP-1 Receptor (Homo sapiens, UniProt P43220). As to the kind of experiment: GLP-1R agonist cAMP stimulation assay (HEK293/GLP1R/CRE-LUC cells, cAMP dynamic 2 kit). The following applies: HEK293/CRE-Luc cell line stably expressing the GLP-1 Receptor; 30 min incubation at 37° C.; read-out: GLP1R cAMP Stimulation DR: EC50. It is filed as cell-based. The method, then: Activation of GLP-1 receptor is known to stimulate cyclic AMP (cAMP) production in cells which indicates primary coupling to the Gas subunit of the G protein heterotrimeric complex.
To optimize functional activity directed toward Gas coupling, a HEK293/CRE-Luc cell line developed by HDB stably expressing the GLP-1 Receptor was used. […] Seal the plate and incubate at 37° C. with 5% CO2 for 30 min.
After incubation the cAMP assay signal was generated using cAMP dynamic 2 Kit (Cisbio). 5 μL cAMP-d2 working solution was added to each well, followed with 5 μL Anti-cAMP antibody-cryptate working solution added to each well using ThermoFisher Multidrop Combi. Incubate at room temperature for 1 hour protected from light.
% Activity=[…]×(mean RLU of test sample−mean RLU of vehicle control)/(mean RLU of MAX control−mean RLU of vehicle control))

For orientation: EC50 means the midpoint of the concentration-response curve. Take `O=C(O)c1ccc2nc(CC3CCN(C(=O)c4ccn(Cc5ccc(Cl)cc5F)n4)CC3)n(C[C@@H]3CCO3)c2n1` [Compound 101a, (S)-2-((1-(1-(4-chloro-2-fluorobenzyl)-1H-pyrazole-3-carbonyl)piperidin-4-yl)methyl)-3-(oxetan-2-ylmethyl)-3H-imidazo[4,5-b]pyridine-5-carboxylic acid]: the EC50 was 290 nM. Next, `Cc1cn(Cc2ccc(Cl)cc2F)nc1C(=O)N1CCC(Cc2nc3ccc(C(=O)O)nc3n2C[C@@H]2CCO2)CC1` [Compound 102a, (S)-2-((1-(1-(4-chloro-2-fluorobenzyl)-4-methyl-1H-pyrazole-3-carbonyl)piperidin-4-yl)methyl)-3-(oxetan-2-ylmethyl)-3H-imidazo[4,5-b]pyridine-5-carboxylic acid]: 179 nM.

Turning to `O=C(O)c1ccc2nc(CC3CCN(C(=O)c4nc(Cc5ccc(Cl)cc5F)cs4)CC3)n(C[C@@H]3CCO3)c2n1` [Compound 103a, (S)-2-((1-(5-(4-chloro-2-fluorobenzyl)thiazole-2-carbonyl)piperidin-4-yl)methyl)-3-(oxetan-2-ylmethyl)-3H-imidazo[4,5-b]pyridine-5-carboxylic acid], the EC50 came to 19.6 nM. Next, `O=C(O)c1ccc2nc(CC3CCN(C(=O)c4ncc(Cc5ccc(Cl)cc5F)s4)CC3)n(C[C@@H]3CCO3)c2n1` [Compound 104a, (S)-2-((1-(5-(4-Chloro-2-fluorobenzyl)thiazole-2-carbonyl)piperidin-4-yl)methyl)-3-(oxetan-2-ylmethyl)-3H-imidazo[4,5-b]pyridine-5-carboxylic acid]: 725 nM; `O=C(O)c1ccc2nc(CC3CCN(Cc4nc(Cc5ccc(Cl)cc5F)cs4)CC3)n(C[C@@H]3CCO3)c2n1` [Compound 105a, (S)-2-((1-((4-(4-Chloro-2-fluorobenzyl)thiazol-2-yl)methyl)piperidin-4-yl)methyl)-3-(oxetan-2-ylmethyl)-3H-imidazo[4,5-b]pyridine-5-carboxylic acid]: 497 nM. Next, `O=C(O)c1ccc2nc(CN3CCC(Oc4ccccc4Cc4ccc(Cl)cc4F)CC3)n(C[C@@H]3CCO3)c2n1` [Compound 107a, (S)-2-((4-(2-(4-Chloro-2-fluorobenzyl)phenoxy)piperidin-1-yl)methyl)-3-(oxetan-2-ylmethyl)-3H-imidazo[4,5-b]pyridine-5-carboxylic acid]: 201 nM; `O=C(O)c1ccc2nc(CN3CCC(Oc4cccc(Cc5ccc(Cl)cc5F)n4)CC3)n(C[C@@H]3CCO3)c2n1` [Compound 109a, (S)-2-((4-((6-(4-Chloro-2-fluorobenzyl)pyridin-2-yl)oxy)piperidin-1-yl)methyl)-3-(oxetan-2-ylmethyl)-3H-imidazo[4,5-b]pyridine-5-carboxylic acid]: 0.051 nM.

Turning to `O=C(O)c1ccc2nc(CN3CCC(Oc4cccc(Oc5ccc(Cl)cc5F)n4)CC3)n(C[C@@H]3CCO3)c2n1` [Compound 118a, 2-[(4-{[6-(4-chloro-2-fluorophenoxy)pyridin-2-yl]oxy}piperidin-1-yl)methyl]-3-{[(2S)-oxetan-2-yl]methyl}-3H-imidazo[4,5-b]pyridine-5-carboxylic acid], the concentration for a half-maximal effect (EC50) is 30 nM. Next, `O=C(O)c1ccc2nc(CN3CCC(Oc4cccc(Cc5ccccc5)n4)CC3)n(C[C@@H]3CCO3)c2n1` [Compound 123a, 2-({4-[(6-benzylpyridin-2-yl)oxy]piperidin-1-yl}methyl)-3-{[(2S)-oxetan-2-yl]methyl}-3H-imidazo[4,5-b]pyridine-5-carboxylic acid]: 1.7 nM.
